# According to patent publication US7148353B2 (priority 2003, dated 2006):
# Sequences of proteins named here, by UniProt entry; tags and fusion partners are left off.
# UniProt P16257, whole entry: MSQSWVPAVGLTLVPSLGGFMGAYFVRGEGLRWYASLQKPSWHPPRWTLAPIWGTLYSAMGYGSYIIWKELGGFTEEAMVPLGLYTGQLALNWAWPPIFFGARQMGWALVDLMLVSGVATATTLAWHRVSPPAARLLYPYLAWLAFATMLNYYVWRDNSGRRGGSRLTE
# Read-outs that look alike come from different tables or passages of the source.
# What was measured:
# [1] = molecular target: peripheral benzodiazepine receptors (Rattus norvegicus, UniProt P16257); details: read-out: IC50 (nM) peripheral, Table 1b
# [2] = molecular target: central benzodiazepine receptors; test: binding to central benzodiazepine receptors, displacement of 3H-flunitrazepam (test of Speth et al.); details: read-out: IC50 (nM) central, Table 1b
# [3] = tested as the radiolabelled form
Compound,"IC50 [1, 3] [nM]","IC50 [2, 3] [nM]",IC50 [1] [nM],IC50 [2] [nM]
Cc1cc(Cl)cn2c(CC(=O)c3cccs3)c(-c3ccccc3)nc12,3700,> 10000,–,–
Cc1ccc(-c2nc3ccc(C(F)(F)F)cn3c2CC(=O)c2cccs2)cc1,–,–,650,> 10000
O=C(Cc1c(-c2ccccc2)nc2ccc(Cl)cn12)c1cccs1,1200,630,–,–
